The assay concerns the target rat mGlu5 (Rattus norvegicus, UniProt P31424). Kind of assay: Calcium mobilization mGlu5 assay. It counts as cell-based. To be noted: HEK293A cells expressing rat mGlu5; EC80 glutamate; average of n ≥ 3.

The chains behind the UniProt entries cited, without tags or fusion partners. Residues count along the entry.
UniProt P31424, 21-1203: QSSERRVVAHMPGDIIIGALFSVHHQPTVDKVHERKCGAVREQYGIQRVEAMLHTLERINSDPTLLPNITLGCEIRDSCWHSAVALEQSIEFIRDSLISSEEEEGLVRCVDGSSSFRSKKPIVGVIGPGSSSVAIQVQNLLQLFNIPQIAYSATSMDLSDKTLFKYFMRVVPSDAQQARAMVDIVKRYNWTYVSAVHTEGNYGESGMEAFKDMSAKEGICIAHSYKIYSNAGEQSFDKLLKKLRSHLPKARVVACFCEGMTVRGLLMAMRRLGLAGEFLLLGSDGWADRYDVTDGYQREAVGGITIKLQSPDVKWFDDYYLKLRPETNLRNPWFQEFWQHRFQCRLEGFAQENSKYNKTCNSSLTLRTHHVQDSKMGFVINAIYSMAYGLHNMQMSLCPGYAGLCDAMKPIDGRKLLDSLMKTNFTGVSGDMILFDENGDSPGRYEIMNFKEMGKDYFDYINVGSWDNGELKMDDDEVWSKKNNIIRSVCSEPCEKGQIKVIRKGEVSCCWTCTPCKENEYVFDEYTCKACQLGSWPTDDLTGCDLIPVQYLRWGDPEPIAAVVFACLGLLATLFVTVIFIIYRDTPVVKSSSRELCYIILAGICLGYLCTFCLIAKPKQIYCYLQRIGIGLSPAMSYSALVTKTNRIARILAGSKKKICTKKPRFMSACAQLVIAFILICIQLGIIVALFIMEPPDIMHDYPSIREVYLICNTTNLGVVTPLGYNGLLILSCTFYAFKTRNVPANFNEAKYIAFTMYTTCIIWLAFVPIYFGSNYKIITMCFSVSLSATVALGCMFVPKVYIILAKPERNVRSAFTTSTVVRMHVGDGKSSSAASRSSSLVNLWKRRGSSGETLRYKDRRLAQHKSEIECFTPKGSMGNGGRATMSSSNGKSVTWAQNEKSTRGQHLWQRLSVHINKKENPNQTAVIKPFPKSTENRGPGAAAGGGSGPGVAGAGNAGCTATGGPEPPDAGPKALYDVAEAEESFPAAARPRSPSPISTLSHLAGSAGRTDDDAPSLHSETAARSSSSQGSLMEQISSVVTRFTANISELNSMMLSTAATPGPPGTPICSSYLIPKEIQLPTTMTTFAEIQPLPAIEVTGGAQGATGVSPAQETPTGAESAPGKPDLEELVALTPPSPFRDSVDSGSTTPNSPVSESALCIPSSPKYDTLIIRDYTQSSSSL

Here are results for 1 compound from PMC3846293 (Bioorganic & medicinal chemistry letters, 2013).

Regarding `Cc1nc(NC(=O)c2cccc(Oc3cccnc3)c2)nn1C` [Compound 21], the “mGlu5 pIC50 (± SEM)” value is recorded as under 4.5.
